Data from patent publication US20110306035A1, “Methods and Compositions for Detection of a Pathogen, Disease, Medical Condition, or Biomarker Thereof” (priority 2008, published 2011).

System: Enterovirus 3C protease
Assay: Enterovirus assay in clinical CSF samples (vs RT-PCR)
Format: biochemical
Details: bacterial samples 23-25; new assay conditions

O=C(O)c1cccc(C(=O)O)n1 [2,6-pyridinedicarboxylic acid]
effect on unspecific background activity of bacterial CSF samples: could not abolish
